101 molecules from PubChem BioAssay AID2599 (Sanford-Burnham Center for Chemical Genomics, 2010) can be followed below.

Chains of the proteins cited; added tags and fusions are not shown. Lines headed by an entry give the natural chain unless they say otherwise; changes in a name come on top.
UniProt Q9GZR1: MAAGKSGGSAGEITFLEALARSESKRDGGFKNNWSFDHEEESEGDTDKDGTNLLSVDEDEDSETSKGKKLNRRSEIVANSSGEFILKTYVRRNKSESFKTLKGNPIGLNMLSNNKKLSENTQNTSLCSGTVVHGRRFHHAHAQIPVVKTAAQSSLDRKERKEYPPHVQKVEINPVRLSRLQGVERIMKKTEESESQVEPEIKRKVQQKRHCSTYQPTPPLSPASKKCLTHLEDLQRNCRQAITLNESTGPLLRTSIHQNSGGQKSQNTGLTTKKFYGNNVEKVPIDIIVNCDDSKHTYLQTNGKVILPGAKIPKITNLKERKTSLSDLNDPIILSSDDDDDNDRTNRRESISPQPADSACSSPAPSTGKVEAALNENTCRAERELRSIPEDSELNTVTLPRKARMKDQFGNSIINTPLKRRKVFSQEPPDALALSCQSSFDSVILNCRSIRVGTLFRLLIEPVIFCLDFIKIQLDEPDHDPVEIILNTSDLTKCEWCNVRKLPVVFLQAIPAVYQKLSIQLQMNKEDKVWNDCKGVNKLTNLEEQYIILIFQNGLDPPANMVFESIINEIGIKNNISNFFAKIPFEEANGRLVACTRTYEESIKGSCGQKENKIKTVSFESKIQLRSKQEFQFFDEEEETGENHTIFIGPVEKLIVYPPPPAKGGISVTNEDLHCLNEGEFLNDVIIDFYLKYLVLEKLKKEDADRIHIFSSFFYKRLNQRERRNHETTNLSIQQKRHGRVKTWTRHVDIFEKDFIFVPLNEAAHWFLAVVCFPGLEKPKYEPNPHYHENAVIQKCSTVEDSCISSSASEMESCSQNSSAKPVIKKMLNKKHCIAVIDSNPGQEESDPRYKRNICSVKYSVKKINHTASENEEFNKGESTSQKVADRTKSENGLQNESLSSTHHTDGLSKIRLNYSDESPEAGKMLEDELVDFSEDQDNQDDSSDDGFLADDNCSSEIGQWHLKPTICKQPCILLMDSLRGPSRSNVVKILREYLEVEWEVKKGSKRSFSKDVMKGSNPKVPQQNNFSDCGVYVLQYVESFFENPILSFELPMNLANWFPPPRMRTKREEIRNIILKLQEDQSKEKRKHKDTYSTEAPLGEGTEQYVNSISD

SMILES strings stand for the structures. Only a part is listed here, and it is no random draw. The source made the active and inactive calls.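 The calls were made as follows: active = inhibition above about 50% at the single tested dose (limit read from the data); inactive = the rest.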

The inhibition is the relative decrease from the control value, in per cent.

The assay deals with Sentrin-specific protease 6 (Homo sapiens) (UniProt Q9GZR1). The experiment in a line: inhibition of human SENP6 catalytic domain – biochemical, luminescence, uHTS, primary screen (AID 2599).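 Also: plate controls were DMSO wells with enzyme for no effect and DMSO wells lacking enzyme for full effect.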 The settings on record: Recombinant SENP6 catalytic domain, aminoluciferin luminescence; at 10 µM; active compounds read high.
Turning to `CCOC(=O)Nc1ccc([As](=O)(O)O)c(O)c1`, the inhibition is inactive: -2.45%.
To `Cc1cc(SC(NC(=O)c2ccccc2)C(Cl)(Cl)Cl)nc(C(C)C)n1` (stereo unspecified) belongs inactive: 6.46%; to `CCCCOc1ccc(C(=O)NCC2(N3CCCCC3)CCCCC2)cc1OC`, inactive: -11.6%; to `CCOC(=O)Nc1cccc([As](=O)(O)O)c1`, inactive: 9.23%.
For `O=P(Nc1ccccn1)(c1cccc2ccccc12)c1cccc2ccccc12` the value was inactive: -31.4%.
For `Cc1cc(SC(NC=O)C(Cl)(Cl)Cl)ncn1` (stereo unspecified), the inhibition was inactive: -13.1%.
To `COP1(=S)c2c(C)nn(CCC#N)c2N=C(c2ccc(F)cc2)N1C` (stereo unspecified) belongs inactive: -1.56%; to `O=C(Nc1ccncc1[N+](=O)[O-])c1ccc([N+](=O)[O-])cc1[N+](=O)[O-]`, inactive: 3.18%.
For the molecule `O=C(COc1ccccc1)OC1CN2CCC1CC2` (stereo unspecified), the inhibition is inactive: -5.1%.
To `CCOC(=O)c1ccc(NC(=O)C(C)(CCl)SC)cc1` (stereo unspecified) belongs inactive: -0.11%; to `O=C(OC1CN2CCC1CC2)c1cccc([N+](=O)[O-])c1` (stereo unspecified), inactive: 2.86%; to `CCC(C)N(CC(C)C)C(=S)SC(NC(C)=O)C(Cl)(Cl)Cl` (stereo unspecified), inactive: -3.94%.
For `Cc1cc(=O)[nH]c(N[N+](=O)[O-])n1` the value was inactive: -2.95%; for `O=C(OC1CN2CCC1CC2)C12CC3CC(CC(C3)C1)C2` (stereo unspecified), inactive: -15.7%.
As for `Cc1c2c(nc3ccccc13)SC(C(Cl)Cl)C2` (stereo unspecified), the inhibition was inactive: -23.4%.
Regarding `COc1cc(I)ccc1[As](=O)(O)O`, the inhibition was inactive: -19.6%.
To `COc1ccc2nc(NP(=O)(c3ccccc3)c3ccccc3)sc2c1` belongs inactive: 0.449%; to `COc1ccc(N/C(=N/P(=O)(N2CCOCC2)N2CCOCC2)N2CCOCC2)cc1`, inactive: 5.19%; to `COc1cc(C(=O)NCC2(N3CCOCC3)CCCCC2)ccc1OCC(C)C`, inactive: -8.9%.
To `C[As](=O)(O)c1cccc(C(=O)O)c1` belongs inactive: -0.235%.
Turning to `O=[As](O)(c1ccc(O)cc1)c1ccccc1O`, the inhibition was inactive: -10.2%.
For `Cc1ccc2nc3c(c(C)c2c1)CC(C(Cl)Cl)S3` (stereo unspecified), the inhibition is inactive: -20.3%.
To `CC(C)c1ccc(OP(=O)(Nc2ccccn2)Oc2ccccc2F)cc1` (stereo unspecified) belongs inactive: -7.89%.
For `ClCCSc1nnc(-c2cccnc2)o1` the value was inactive: 7.09%; for `O=[N+]([O-])c1cc([N+](=O)[O-])c(-c2ccn[nH]2)s1`, inactive: 15.6%; for `CC(C)NC(=O)NP(=O)(Oc1ccccc1)Oc1ccccc1`, inactive: 6.61%.
Consider `CCN(CC)C(=S)SC(NC=O)C(Cl)(Cl)Cl` (stereo unspecified), for which the inhibition is inactive: 4.72%.
To `O=C(OC1CN2CCC1CC2)c1cccc2[nH]cnc12` (stereo unspecified) belongs inactive: 9.04%; to `CS(=O)(=O)c1cc([N+](=O)[O-])c2no[n+]([O-])c2c1`, inactive: 0.988%.
For `O=P(Nc1nccs1)(Oc1ccccc1)Oc1ccccc1` the value was inactive: -13.3%; for `O=P(Nc1nccs1)(c1ccccc1)c1nc2ccccc2s1` (stereo unspecified), inactive: -16.7%; for `CCOP1(=S)c2c(C)nn(CCC#N)c2N=C(c2ccccc2F)N1C` (stereo unspecified), inactive: -0.498%.
With `Nc1ccccc1[As](=O)(O)c1ccccc1`, the inhibition was inactive: -3.74%.
For `O=C(O)COc1ccc([As](=O)(O)O)cc1[N+](=O)[O-]` the value was inactive: 0.3%.
For `NC(=O)Nc1ccc([As](=O)(O)O)cc1` the value was inactive: -2.25%; for `CN(C(=O)Cc1ccc(Cl)c(Cl)c1)[C@H]1CC[C@@]2(CCCO2)C[C@@H]1N1CCCC1`, inactive: -0.335%; for `O=[N+]([O-])c1ccc2c(c1)nnn2O`, inactive: 11.5%.
To `CN(C)C(=O)c1cc([N+](=O)[O-])cc2c1-c1c(cc([N+](=O)[O-])cc1[N+](=O)[O-])C2=O` belongs inactive: 13.8%.
As to `CCOP1(=S)c2c(C)nn(CCC#N)c2N=C(c2ccc(F)cc2)N1C` (stereo unspecified), the inhibition was inactive: -15%.
To `CN(C(=O)Cc1ccccc1)[C@@H]1CC[C@]2(CCCO2)C[C@H]1N1CCCC1` belongs inactive: 3.56%; to `N#CCCN(C(=O)COC(=O)C(O)(c1ccccc1)c1ccccc1)c1ccc(F)cc1`, inactive: -16.7%.
For `CS(=O)(=O)c1ccc(Cl)c(NC(=O)COC(=O)C(O)(c2ccccc2)c2ccccc2)c1` the value was inactive: 2.1%.
Consider `O=[As](O)(O)c1cccnc1`, for which the inhibition is inactive: -16.4%.
As for `COc1cc(C(=O)NCC2(N3CCOCC3)CCCCC2)cc(Cl)c1OC(C)C`, the inhibition was inactive: -10.5%.
`O=C(OC1CN2CCC1CC2)c1ccc(Cl)cc1` (stereo unspecified): the inhibition was inactive: -11.1%.
As for `Cc1cccc(OCC(=O)OC2CN3CCC2CC3)c1` (stereo unspecified), the inhibition was inactive: -0.822%.
To `O=[As](O)(c1cccc(O)c1)c1cccc(O)c1` belongs inactive: -11.3%.
For `CCCOP(=S)(Nc1nc(N)cc(=O)[nH]1)OCCC` the value was inactive: -11.8%; for `Cc1ccc(NCCc2c([N+](=O)[O-])cc([N+](=O)[O-])cc2[N+](=O)[O-])cc1`, inactive: 13.5%.
As to `CCOP(=O)(Nc1cccc2ccccc12)OCC`, the inhibition is inactive: 13.2%.
In the case of `COc1cc(C2NCCC3(OCCO3)C2(C)C)cc(OC)c1OC` (stereo unspecified), the inhibition is inactive: -5.25%.
With `CCOP(=O)(Nc1ccc(C)cn1)OCC`, the inhibition is inactive: -7.13%.
To `CN(CCCl)Cc1cc(Cl)c(NC2=NCCN2)c(Cl)c1` belongs inactive: -14.1%; to `CCOP(=O)(NC(=NC(C)c1ccccc1)NC(C)c1ccccc1)OCC` (stereo unspecified), inactive: 18.9%; to `O=P1(Nc2ccccn2)COc2ccccc2OC1`, inactive: -13.9%.
As to `CCC1=CC2Cc3nc4ccc(Cl)cc4c(N)c3C(C1)C2` (stereo unspecified), the inhibition is inactive: 14.4%.
To `CC(C)(C)C(=O)NC(Sc1ncccn1)C(Cl)(Cl)Cl` (stereo unspecified) belongs inactive: -38.5%; to `Clc1n[nH]nc1-c1nn[nH][15n]1`, inactive: -17.9%.
To `COc1ccccc1CNC(=O)COC(=O)C(O)(c1ccccc1)c1ccccc1` belongs inactive: -1.11%; to `CC1(CBr)Cn2c(nc3ccccc3c2=O)S1` (stereo unspecified), inactive: -2.64%.
Turning to `O=[As](O)(c1ccccc1Br)c1ccccc1Br`, the inhibition is inactive: -2.87%.
To `CC(C)/C=N\N=C(\N)N[N+](=O)[O-]` belongs inactive: -13.7%; to `CN(C(=O)Cc1ccc(Cl)c(Cl)c1)[C@@H]1CCCC[C@H]1N1CCCC1`, inactive: -18%.
For `CC1CCC(C(C)C)C(OP(=O)(Nc2ccccn2)c2ccccc2)C1` (stereo unspecified) the value was inactive: 13%.
Consider `Cc1ccc(C(=O)OC2CN3CCC2CC3)cc1` (stereo unspecified), for which the inhibition was inactive: -0.733%.
Take `Cc1nn(-c2ccccc2)c2c1P(=O)(N1CCOCC1)N(C)C(c1ccccc1)=N2` (stereo unspecified): the inhibition is inactive: 5.48%.
Turning to `O=C(/C=C/c1ccccc1)OC1CN2CCC1CC2` (stereo unspecified), the inhibition was inactive: -5.74%.
On to `CN(C)C1(CNC(=O)c2ccc(S(C)(=O)=O)cc2)CCCCC1`, for which the inhibition is inactive: -2.48%.
Take `O=P1(Nc2ncccn2)COc2ccccc2OC1`: the inhibition was inactive: 4.06%.
Regarding `Cc1ccc(OCC(=O)OC2CN3CCC2CC3)cc1` (stereo unspecified), the inhibition was inactive: -18.4%.
For `O=[As](O)(c1cccs1)c1cccs1` the value was inactive: -3.46%.
`O=P1(Nc2ccc(Br)cn2)COc2ccccc2OC1`: the inhibition was inactive: -13.9%.
Consider `NS(=O)(=O)c1cccc(NC(=O)COC(=O)C(O)(c2ccccc2)c2ccccc2)c1`, for which the inhibition was inactive: 3.92%.
Consider `Nc1cccc([As](=O)(O)c2ccccc2)c1`, for which the inhibition was inactive: -10.2%.
For `O=P(Nc1ccccn1)(c1ccc(Br)cc1)c1ccc(Br)cc1` the value was inactive: 2.94%; for `CN(C)C1(CNC(=O)c2ccc(Cl)c(S(N)(=O)=O)c2)CCCCC1`, inactive: 11.2%.
In the case of `C[C@H]1OP(=O)(Oc2ccccc2)[C@H](O)[C@H](O)[C@H]1N=[N+]=[N-]` (stereo partly specified), the inhibition was inactive: -18.1%.
To `O=P(Nc1nc2ccccc2s1)(c1ccccc1)c1ccccc1` belongs inactive: -5.03%; to `O=[N+]([O-])c1ncn(CCn2cnc([N+](=O)[O-])n2)n1`, inactive: 0.988%; to `O=[As](O)(c1ccccc1)c1ccc(O)cc1`, inactive: -25.6%.
Regarding `C(Cc1nn[nH]n1)Cc1nn[nH]n1`, the inhibition was inactive: 5.42%.
As to `Nc1ccc([As](=O)(O)c2ccc([N+](=O)[O-])cc2)cc1`, the inhibition is inactive: -22.1%.
For `O=C(OC1CN2CCC1CC2)c1cccc(Cl)c1` (stereo unspecified), the inhibition was inactive: -2.24%.
For `CC(C)C(=O)NC(Sc1ccccc1)C(Cl)(Cl)Cl` (stereo unspecified) the value was inactive: -31.8%; for `O=P(Nc1nccs1)(c1ccccc1)c1ccccc1`, inactive: 5.21%.
As for `c1nnnn1CCn1cnnn1`, the inhibition is inactive: -9.98%.
For the molecule `CCOc1ccc(C2=NCC(CBr)S2)cc1` (stereo unspecified), the inhibition is inactive: -21.6%.
In the case of `O=P1(Nc2nc3ccc(Cl)cc3s2)COc2ccccc2O1` (stereo unspecified), the inhibition is inactive: 1.41%.
For `CC(C)(C)C(=O)NC(Sc1ccccc1)C(Cl)(Cl)Cl` (stereo unspecified) the value was inactive: 10.6%; for `CC(=O)c1ccc(N2CC2c2ccncc2)cc1` (stereo unspecified), inactive: 20.8%; for `C[C@H]1OP(=O)(Oc2ccccc2)C[C@@H]2O[C@@H]21` (stereo partly specified), inactive: -9.84%.
For `C[C@@H]1C=CCP(=O)(Oc2ccccc2)O1` (stereo partly specified) the value was inactive: 7.5%; for `Cc1ccccc1CN(C)C(=O)COC(=O)C(O)(c1ccccc1)c1ccccc1`, inactive: -12.5%.
As for `CC(=O)Nc1ccc(Oc2c([N+](=O)[O-])cc([N+](=O)[O-])cc2[N+](=O)[O-])cc1`, the inhibition was inactive: -15.5%.
As for `CC(=O)Nc1ccc([As](=O)(O)O)c(O)c1`, the inhibition was inactive: -4.82%.
To `CCNC(=S)/N=C(\N)N[N+](=O)[O-]` belongs inactive: -3.07%; to `O=C(NC1CCS(=O)(=O)C1)NP(=S)(Oc1ccccc1)Oc1ccccc1` (stereo unspecified), inactive: 2.5%; to `Cc1ccc(NP(=O)(Oc2cccc(C)c2)Oc2cccc(C)c2)nc1`, inactive: -1.52%.
For `CCOC(=O)NC(Sc1ccccc1)C(Cl)(Cl)Cl` (stereo unspecified) the value was inactive: 11.4%.
To `c1ccc(-c2nn[nH]n2)c(-c2nn[nH]n2)c1` belongs inactive: -14.9%; to `CC(=O)NC(SC(=S)N(CC(C)C)CC(C)C)C(Cl)(Cl)Cl` (stereo unspecified), inactive: -8.45%.
